Values of other authors as cited in patent US9272026B2, “HLA-A*1101-restricted WT1 peptide and pharmaceutical composition comprising the same” (International Institute of Cancer Immunology, Inc., priority 2006, dated 2016).

Chains of the proteins cited; added tags and fusions are not shown. Lines headed by an entry give the natural chain unless they say otherwise; changes in a name come on top.
UniProt P19544: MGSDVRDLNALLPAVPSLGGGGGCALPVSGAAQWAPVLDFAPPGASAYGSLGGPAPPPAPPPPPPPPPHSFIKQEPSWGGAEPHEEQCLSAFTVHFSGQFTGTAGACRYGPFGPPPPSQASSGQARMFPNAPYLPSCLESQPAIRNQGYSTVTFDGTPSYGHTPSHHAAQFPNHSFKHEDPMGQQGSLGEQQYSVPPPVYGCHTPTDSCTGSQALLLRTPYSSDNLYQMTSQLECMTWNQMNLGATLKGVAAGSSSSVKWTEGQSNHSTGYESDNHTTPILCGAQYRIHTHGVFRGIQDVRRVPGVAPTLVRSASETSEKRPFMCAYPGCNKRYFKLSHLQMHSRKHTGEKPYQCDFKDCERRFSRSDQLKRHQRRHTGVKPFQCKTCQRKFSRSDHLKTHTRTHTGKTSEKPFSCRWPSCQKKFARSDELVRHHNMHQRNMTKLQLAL

Tested on: human peripheral blood mononuclear cells having HLA-A*0201
Settings: human PBMCs having HLA-A*0201; Non-patent Document 11; cited from earlier work

Substance: Db126 peptide: WT1 peptide having a high ability to bind to an HLA-A*0201 molecule (RMFPNAPYL; UniProt P19544 126-134, looked up, fragment)
- induction of WT1-specific CTLs: WT1-specific CTLs are induced
